ChEMBL document CHEMBL1130193, “Synthesis, cardiotonic activity, and structure-activity relationships of 17 beta-guanylhydrazone derivatives of 5 beta-androstane-3 beta, 14 beta-diol acting on the Na+,K(+)-ATPase receptor” (J Med Chem, 1997)

Molecular target: Sodium/potassium-transporting ATPase subunit alpha-1 (Canis lupus familiaris, UniProt P50997)
Assay: Inhibition of Na+/K+ ATPase from dog kidney

Compound: C[C@]12CC[C@H](O)C[C@H]1CC[C@@H]1[C@@H]2CC[C@]2(C)[C@@H](/C=C/C=N/NC3=NCCN3)CC[C@]12O
- IC50: 2500 nM
